# Data as given in patent US20220133783A1 (priority 2020, published 2022).
# Assay: Retention in nasal passage
# Conditions: from the composition applied nasally
substance,measurement,value
ethyl-N-alpha-lauroyl-L-arginate HCl,retention in nasal passage,≥ 2 h
